Assay results published in patent EP4825855A1, “COMPOUND CONTAINING PYRAZOLE RING AND BICYCLIC HETEROARYL GROUP, PHARMACEUTICAL COMPOSITION THEREOF AND USE THEREOF” (dated 2026).

Sequences of proteins named here, by UniProt entry; tags and fusion partners are left off. A change or cut given only in a name is not applied to a line headed by its entry.
UniProt Q06187, whole entry: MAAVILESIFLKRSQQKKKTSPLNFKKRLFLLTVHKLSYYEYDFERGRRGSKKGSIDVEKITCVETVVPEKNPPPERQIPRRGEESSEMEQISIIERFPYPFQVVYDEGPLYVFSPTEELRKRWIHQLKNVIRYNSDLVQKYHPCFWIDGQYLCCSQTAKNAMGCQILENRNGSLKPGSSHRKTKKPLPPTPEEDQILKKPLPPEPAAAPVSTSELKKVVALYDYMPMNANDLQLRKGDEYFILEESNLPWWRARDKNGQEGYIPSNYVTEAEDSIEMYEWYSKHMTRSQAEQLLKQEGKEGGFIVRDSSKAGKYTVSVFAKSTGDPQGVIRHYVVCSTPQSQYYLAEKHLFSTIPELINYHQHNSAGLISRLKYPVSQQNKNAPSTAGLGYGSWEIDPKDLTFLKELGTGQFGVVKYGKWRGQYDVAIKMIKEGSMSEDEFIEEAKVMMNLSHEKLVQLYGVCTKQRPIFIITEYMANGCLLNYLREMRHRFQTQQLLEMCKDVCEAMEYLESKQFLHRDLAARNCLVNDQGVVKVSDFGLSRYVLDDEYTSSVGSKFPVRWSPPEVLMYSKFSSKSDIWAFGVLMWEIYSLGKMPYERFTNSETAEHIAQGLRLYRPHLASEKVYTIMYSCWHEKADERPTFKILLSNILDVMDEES
UniProt Q06187, whole entry C481S: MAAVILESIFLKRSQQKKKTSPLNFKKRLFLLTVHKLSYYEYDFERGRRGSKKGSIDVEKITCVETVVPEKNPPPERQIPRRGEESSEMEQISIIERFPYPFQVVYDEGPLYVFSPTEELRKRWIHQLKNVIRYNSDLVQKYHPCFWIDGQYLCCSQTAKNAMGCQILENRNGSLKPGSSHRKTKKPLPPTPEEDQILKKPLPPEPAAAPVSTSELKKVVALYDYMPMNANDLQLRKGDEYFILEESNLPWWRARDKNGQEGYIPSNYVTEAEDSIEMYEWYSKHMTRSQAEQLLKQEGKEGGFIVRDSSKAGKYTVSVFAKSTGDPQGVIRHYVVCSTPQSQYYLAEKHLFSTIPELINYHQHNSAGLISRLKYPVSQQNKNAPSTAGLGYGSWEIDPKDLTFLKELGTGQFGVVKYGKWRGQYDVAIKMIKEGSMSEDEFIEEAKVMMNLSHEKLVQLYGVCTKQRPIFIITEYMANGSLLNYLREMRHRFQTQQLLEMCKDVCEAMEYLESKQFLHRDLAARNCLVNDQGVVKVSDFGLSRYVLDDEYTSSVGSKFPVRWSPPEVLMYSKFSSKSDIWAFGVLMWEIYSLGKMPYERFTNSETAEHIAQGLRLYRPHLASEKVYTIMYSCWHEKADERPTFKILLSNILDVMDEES

Columns and labels:
[1] = In vitro stability in liver microsomes (mouse); settings: 37 °C, NADPH
Description: (§1) 300 µL of the final incubation system contains 30 µL of liver microsomes (protein concentration: 0.15 mg/mL), 30 µL of NADPH + MgCl2, 3 µL of the test compound (in acetonitrile), and 237 µL of PBS buffer (pH 7.4). The proportion of the organic solvent (acetonitrile) was 1%. Samples were prepared in duplicate of 0.3 mL for each species. Tubes each containing 270 µL of a mixed solution of substrate and enzyme and NADPH were pre-incubated at 37 °C for 5 min. 30 µL of NADPH + MgCl2 was added and the mixture was mixed. 50 µL of the mixture was taken at 0 min, 15 min, 30 min, and 60 min, and 300 µL of glacial acetonitrile containing an internal standard was added to terminate the reaction.
(§2) 300 µL of glacial acetonitrile containing an internal standard (20 ng/mL diazepam) was added to 50 µL of the incubated sample for precipitation. The mixture was vortexed for 5 min, and centrifuged (12,000 rpm, 4 °C) for 10 min. 75 µL of supernatant was taken and diluted with 75 µL of ultrapure water. After being homogeneously mixed, 0.5 µL of the resulting sample was injected for analysis.

BTK(WT) kinase = BTK(WT) kinase (Homo sapiens, UniProt Q06187); experiment: Inhibitory activity against BTK(WT) kinase; settings: read-out: BTK(WT) kinase inhibition IC50(nM )
Description: (§3) BTK kinase solution (concentration: 0.003 ng/µL) was added to assay wells at 6 µL/well, and different compounds dissolved in DMSO were added to the assay wells separately using a nanoliter pipettor, such that the final concentrations of the compounds were 1000 nM to 0.244 nM. The wells were set in duplicate, and a control well was set. After a 30-min incubation of the above system, ATP (concentration: 50 µM) was mixed with ULight-poly GT substrate (manufacturer: PerkinElmer, concentration: 0.5 µM) in a ratio of 1:1, and the mixture was added to the assay wells at 4 µL/well. The resulting mixture was left to react at room temperature for 2 h, and then 5 µL of EDTA was added to terminate the reaction, followed by the addition of 5 µL of a detection antibody (manufacturer: PerkinElmer, concentration: 8 nM). The mixture was incubated at room temperature for 1 h. The assay was performed using a PerkinElmer Envision multifunctional microplate reader (excitation: 320 nm, emission: 615 nm/665 nm), and IC50 was calculated by four-parameter fitting.

BTK(C481S) kinase = BTK(C481S) kinase (Homo sapiens, UniProt Q06187, C481S); experiment: Inhibitory activity against BTK(C481S) kinase; settings: read-out: BTK(C481S) kinase inhibition IC50(nM )
Description: as §3, with “BTK(C481S)” for “BTK”, “0.006” for “0.003”, “fitting. The test results are shown in Table 3, where A represents: the IC50 value ≤ 10 nM.” for “fitting.”

[2] = In vitro stability in liver microsomes (human); settings: 37 °C, NADPH
Description: as §1, §2

OCI-LY10 cells = experiment: Inhibitory activity against OCI-LY10 cell proliferation (CCK-8); settings: 72 h incubation
Description: OCI-LY10 cells in a good growth state were collected into a centrifuge tube, adjusted to a cell density of 9 × 10^4 cells/mL using an assay medium (1640 + 10% FBS), and seeded onto a 96-well plate (100 µL/well). The cells were incubated overnight in a cell incubator. Compounds were added using a nanoliter pipettor such that the final concentrations of the compounds were 1000 nM to 1.64 nM (the addition was performed in duplicate). Meanwhile, a control was set. After 72 h of incubation in the cell incubator, the assay reagent CCK-8 (manufacturer: Dojindo Laboratories; 10 µL/well) was added. After 4 h of incubation in the cell incubator, the absorbance values were measured at 450 nm on a PerkinElmer Envision microplate reader. A four-parameter analysis was performed, a dose-response curve was fitted, and IC50 was calculated. Table 1. Inhibitory activity against OCI-LY10 cell proliferation

Cc1nc(Nc2cnn(-c3ccc(CNC(=O)c4cc(F)cc5cccnc45)cc3)c2C(N)=O)ccc1NC1CCN(C)CC1
Mouse liver microsome (Remaining amount % at 60 min) [1]: ≥50% | IC50 (BTK(WT) kinase): < 10 nM | IC50 (BTK(C481S) kinase): < 10 nM | Human liver microsome (Remaining amount % at 60 min) [2]: ≥60%

CCC(O)c1nc(Nc2cnn(-c3ccc(CNc4nccc5c(F)ccc(OC)c45)cc3)c2C(N)=O)ccc1NC1CCC(N(C)C)CC1 (stereo not shown)
IC50 (OCI-LY10 cells): < 10 nM | IC50 (BTK(WT) kinase): < 10 nM | IC50 (BTK(C481S) kinase): < 10 nM | Human liver microsome (Remaining amount % at 60 min) [2]: ≥60%

COCCN1CCC(c2ccc(Nc3cnn(-c4ccc(CNC(=O)c5cc(F)cc6cccnc56)cc4)c3C(N)=O)nc2C(C)O)CC1 (stereo not shown)
IC50 (OCI-LY10 cells): < 10 nM | IC50 (BTK(WT) kinase): < 10 nM | IC50 (BTK(C481S) kinase): < 10 nM

COCCN1CCN(c2ccc(Nc3cnn(-c4ccc(CNC(=O)c5cc(F)cc6cccnc56)cc4)c3C(N)=O)nc2C(O)C(F)F)CC1 (single isomer, unassigned)
IC50 (OCI-LY10 cells): < 10 nM | IC50 (BTK(WT) kinase): < 10 nM | IC50 (BTK(C481S) kinase): < 10 nM

CC1CN(C2COC2)CCN1c1ccc(Nc2cnn(-c3ccc(CNC(=O)c4cc(F)cc5cccnc45)cc3)c2C(N)=O)nc1 (stereo not shown)
IC50 (OCI-LY10 cells): < 10 nM | IC50 (BTK(WT) kinase): < 10 nM | IC50 (BTK(C481S) kinase): < 10 nM

COCCN1CCN(c2ccc(Nc3cnn(-c4ccc(CNc5nc(C)cc6c(F)ccc(OC)c56)cc4)c3C(N)=O)nc2C(C)OC)CC1 (stereo not shown)
IC50 (OCI-LY10 cells): < 10 nM | IC50 (BTK(WT) kinase): < 10 nM | IC50 (BTK(C481S) kinase): < 10 nM

NC(=O)c1c(Nc2ccc(N3CCN(C4COC4)CC3)c(C(O)C3CC3)n2)cnn1-c1ccc(CNC(=O)c2cc(F)cc3cccnc23)cc1 (single isomer, unassigned)
IC50 (OCI-LY10 cells): < 10 nM | IC50 (BTK(WT) kinase): < 10 nM | IC50 (BTK(C481S) kinase): < 10 nM

COc1ccc(F)c2cc(C)nc(NCc3ccc(-n4ncc(Nc5ccc(N6CCC(N(C)C)CC6)c(C(OC)C(F)(F)F)n5)c4C(N)=O)cc3)c12 (single isomer, unassigned)
Mouse liver microsome (Remaining amount % at 60 min) [1]: ≥50% | IC50 (BTK(WT) kinase): < 10 nM | IC50 (BTK(C481S) kinase): < 10 nM | Human liver microsome (Remaining amount % at 60 min) [2]: ≥60%

COCCN1CCN(c2ccc(Nc3cnn(-c4ccc(CNc5nccc6c(F)ccc(OC)c56)cc4)c3C(N)=O)nc2C(O)C2CC2)CC1 (stereo not shown)
IC50 (OCI-LY10 cells): < 10 nM | IC50 (BTK(WT) kinase): < 10 nM | IC50 (BTK(C481S) kinase): < 10 nM

COc1ccc(F)c2ccnc(NCc3ccc(-n4ncc(Nc5ccc(N6CCN(C)C(C)C6)c(C(O)C(F)(F)F)n5)c4C(N)=O)cc3)c12 (stereo not shown)
IC50 (OCI-LY10 cells): < 10 nM | IC50 (BTK(WT) kinase): < 10 nM | IC50 (BTK(C481S) kinase): < 10 nM

[2H]C([2H])([2H])OCCN1CCN(c2ccc(Nc3cnn(-c4ccc(CNc5nccc6c(F)ccc(OC)c56)cc4)c3C(N)=O)nc2C(C)OC)CC1 (stereo not shown)
IC50 (OCI-LY10 cells): < 10 nM | IC50 (BTK(WT) kinase): < 10 nM | IC50 (BTK(C481S) kinase): < 10 nM

COCCN1CCC(c2ccc(Nc3cnn(-c4ccc(CNc5nccc6c(F)ccc(OC)c56)cc4)c3C(N)=O)nc2C(C)O)CC1 (racemic)
IC50 (OCI-LY10 cells): < 10 nM | IC50 (BTK(WT) kinase): < 10 nM | IC50 (BTK(C481S) kinase): < 10 nM

COC(c1nc(Nc2cnn(-c3ccc(CNC(=O)c4cc(F)cc5cccnc45)cc3)c2C(N)=O)ccc1N1CCN(C2COC2)CC1)C(F)(F)F (stereo not shown)
IC50 (OCI-LY10 cells): < 10 nM | IC50 (BTK(WT) kinase): < 10 nM | IC50 (BTK(C481S) kinase): < 10 nM

CN(C)C1CCC(Nc2ccc(Nc3cnn(-c4ccc(CNC(=O)c5cc(F)cc6cccnc56)cc4)c3C(N)=O)nc2)CC1 (stereo not shown)
IC50 (OCI-LY10 cells): < 10 nM | IC50 (BTK(WT) kinase): < 10 nM | IC50 (BTK(C481S) kinase): < 10 nM

COc1ccc(F)c2ccnc(NCc3ccc(-n4ncc(Nc5ccc(N6CCN(C7COC7)CC6)c(C(O)C6CC6)n5)c4C(N)=O)cc3)c12 (racemic)
IC50 (OCI-LY10 cells): < 10 nM | IC50 (BTK(WT) kinase): < 10 nM | IC50 (BTK(C481S) kinase): < 10 nM

CCC(O)c1nc(Nc2cnn(-c3ccc(CNC(=O)c4cc(F)cc5cccnc45)cc3)c2C(N)=O)ccc1N1CCN(C2COC2)CC1 (racemic)
IC50 (OCI-LY10 cells): < 10 nM | IC50 (BTK(WT) kinase): < 10 nM | IC50 (BTK(C481S) kinase): < 10 nM

CCC(OC)c1nc(Nc2cnn(-c3ccc(CNC(=O)c4cc(F)cc5cccnc45)cc3)c2C(N)=O)ccc1NC1CCC(N(C)C)CC1 (stereo not shown)
IC50 (OCI-LY10 cells): < 10 nM | IC50 (BTK(WT) kinase): < 10 nM | IC50 (BTK(C481S) kinase): < 10 nM

NC(=O)c1c(Nc2ccc(N3CCN(C4COC4)CC3)c(C(O)C(F)(F)F)n2)cnn1-c1ccc(CNC(=O)c2cc(F)cc3cccnc23)cc1 (racemic)
IC50 (OCI-LY10 cells): < 10 nM | IC50 (BTK(WT) kinase): < 10 nM | IC50 (BTK(C481S) kinase): < 10 nM

CCOC(C)c1nc(Nc2cnn(-c3ccc(CNC(=O)c4cc(F)cc5cccnc45)cc3)c2C(N)=O)ccc1N1CCN(CCOC)CC1 (stereo not shown)
IC50 (OCI-LY10 cells): < 10 nM | IC50 (BTK(WT) kinase): < 10 nM | IC50 (BTK(C481S) kinase): < 10 nM

CN1CCN(c2ccc(Nc3cnn(-c4ccc(CNC(=O)c5cc(F)cc6cccnc56)cc4)c3C(N)=O)nc2C(O)C2CC2)CC1 (racemic)
IC50 (OCI-LY10 cells): < 10 nM | IC50 (BTK(WT) kinase): < 10 nM | IC50 (BTK(C481S) kinase): < 10 nM

CCC(O)c1nc(Nc2cnn(-c3ccc(CNc4nccc5c(F)ccc(OC)c45)cc3)c2C(N)=O)ccc1N1CCN(C2COC2)CC1 (stereo not shown)
IC50 (OCI-LY10 cells): < 10 nM | IC50 (BTK(WT) kinase): < 10 nM | IC50 (BTK(C481S) kinase): < 10 nM

COCCN1CCN(c2ccc(Nc3cnn(-c4ccc(CNc5nccc6c(F)ccc(OC)c56)cc4)c3C(N)=O)nc2C(O)C(F)(F)F)CC1 (racemic)
IC50 (OCI-LY10 cells): < 10 nM | IC50 (BTK(WT) kinase): < 10 nM | IC50 (BTK(C481S) kinase): < 10 nM

COCCN1CCN(c2ccc(Nc3cnn(-c4ccc(CNC(=O)c5cc(F)cc6cccnc56)cc4)c3C(N)=O)nc2C(O)C(F)(F)F)CC1 (stereo not shown)
IC50 (OCI-LY10 cells): < 10 nM | IC50 (BTK(WT) kinase): < 10 nM | IC50 (BTK(C481S) kinase): < 10 nM

COCCN1CCN(c2ccc(Nc3cnn(-c4ccc(CNC(=O)c5cc(F)cc6cccnc56)cc4)c3C(N)=O)nc2COC)CC1
IC50 (OCI-LY10 cells): < 10 nM | IC50 (BTK(WT) kinase): < 10 nM | IC50 (BTK(C481S) kinase): < 10 nM

COCCN1CCN(c2ccc(Nc3cnn(-c4ccc(CNC(=O)c5cc(F)cc6cccnc56)cc4)c3C(N)=O)nc2C(C)OC)CC1 (single isomer, unassigned)
IC50 (OCI-LY10 cells): < 10 nM | IC50 (BTK(WT) kinase): < 10 nM | IC50 (BTK(C481S) kinase): < 10 nM

COCCN1CCN(c2ccc(Nc3cnn(-c4ccc(CNc5nccc6c(F)ccc(OC)c56)cc4)c3C(N)=O)nc2C(O)C(F)F)CC1 (racemic)
IC50 (OCI-LY10 cells): < 10 nM | IC50 (BTK(WT) kinase): < 10 nM | IC50 (BTK(C481S) kinase): < 10 nM

COc1ccc(F)c2ccnc(NCc3ccc(-n4ncc(Nc5ccc(NC6CCC(N(C)C)CC6)c(C(C)O)n5)c4C(N)=O)cc3)c12 (single isomer, unassigned)
IC50 (OCI-LY10 cells): < 10 nM | IC50 (BTK(WT) kinase): < 10 nM | IC50 (BTK(C481S) kinase): < 10 nM | Human liver microsome (Remaining amount % at 60 min) [2]: ≥60%

COc1ccc(F)c2cc(C)nc(NCc3ccc(-n4ncc(Nc5ccc(NC6CCN(C)CC6)c(C(O)C(F)(F)F)n5)c4C(N)=O)cc3)c12 (stereo not shown)
IC50 (OCI-LY10 cells): < 10 nM | IC50 (BTK(WT) kinase): < 10 nM | IC50 (BTK(C481S) kinase): < 10 nM

CN(C)C1CCN(c2ccc(Nc3cnn(-c4ccc(CNC(=O)c5cc(F)cc6cccnc56)cc4)c3C(N)=O)nc2)CC1
IC50 (OCI-LY10 cells): < 10 nM | IC50 (BTK(WT) kinase): < 10 nM | IC50 (BTK(C481S) kinase): < 10 nM | Human liver microsome (Remaining amount % at 60 min) [2]: ≥60%

COCCN1CCN(c2ccc(Nc3cnn(-c4ccc(CNc5nc(C)cc6c(F)ccc(OC)c56)cc4)c3C(N)=O)nc2C(OC)C(F)(F)F)CC1 (stereo not shown)
Mouse liver microsome (Remaining amount % at 60 min) [1]: ≥50% | Human liver microsome (Remaining amount % at 60 min) [2]: ≥60%

[2H]C([2H])([2H])OC(C)c1nc(Nc2cnn(-c3ccc(CNC(=O)c4cc(F)cc5cccnc45)cc3)c2C(N)=O)ccc1N1CCN(CCOC)CC1 (stereo not shown)
IC50 (OCI-LY10 cells): < 10 nM | IC50 (BTK(WT) kinase): < 10 nM | IC50 (BTK(C481S) kinase): < 10 nM
